The entries are a selection whose mix differs from that of the whole data set. Some tests of the compounds listed are not included; inactive here does not mean inactive elsewhere. Active and inactive are the calls of the source. Cut-off read from the data, not from the text of the source: active = fluorescence above about 47; inactive = the rest.

Consider eleven molecules from PubChem BioAssay AID1775 (NMMLSC, 2009).

A short description of the test: green autofluorescence of compounds with avidin beads – biophysical, 488/530 nm, flow cytometry, artefact control, profiling panel (AID 1775). To be noted: compound fluorescence 488/530 nm, at 10 µM, active compounds read high. Background: Flow cytometry measures light scatter and fluorescence of single cells or particles in a stream.
For the molecule `O=C(OC1CN2CCC1CC2)C(CO)(c1ccccc1)c1ccccc1` (stereo unspecified), the fluorescence (KMESF) was inactive: 12. Regarding `COc1ccc(Br)c(C(=O)NCC2(N3CCCCC3)CCCCC2)c1`, the fluorescence (KMESF) is inactive: 7. Regarding `CN(C)c1cccc(C(=O)NCC2(N(C)C)CCCCC2)c1`, the fluorescence (KMESF) was inactive: 39. Take `COc1cccc(C(=O)NCC2(N3CCCCC3)CCCCC2)c1`: the fluorescence (KMESF) was inactive: 9. Take `Cc1ccccc1C(=O)NCC1(N2CCCCC2)CCCCC1`: the fluorescence (KMESF) is inactive: 12. As for `CN(C)C1CCCC1OC(=O)C(O)(c1ccccc1)c1ccccc1` (stereo unspecified), the fluorescence (KMESF) was inactive: 7. The result for `C=CCN1CCN(CCOC(=O)C(O)(c2ccccc2)c2ccccc2)CC1` reads inactive: 14.

As to `CCN1CCCC(OC(=O)C2(O)c3ccccc3C=Cc3ccccc32)C1` (stereo unspecified), the fluorescence (KMESF) is inactive: 3. Regarding `O=C(NCC1(N2CCCCC2)CCCCC1)c1cc([N+](=O)[O-])ccc1Cl`, the fluorescence (KMESF) was inactive: 6. On to `CC(C)N1C(=O)CC2(CCN(CCOC(=O)C(O)(c3ccccc3)c3ccccc3)CC2)C1=O`, for which the fluorescence (KMESF) is inactive: 30. Regarding `CCN(CC)CC(C)C(C)OC(=O)C(O)(c1ccccc1)c1ccccc1` (stereo unspecified), the fluorescence (KMESF) is inactive: 8.
